Measurements from patent US10752581B2, “4-((2-hydroxy-3-methoxybenzyl)amino)benzenesulfonamide derivatives as potent and selective inhibitors of 12-lipoxygenase” (Eastern Virginia Medical School, priority 2013, dated 2020).

The chains behind the UniProt entries cited, without tags or fusion partners. Where a name states a change or a piece, a line headed by the entry shows the natural chain unless it says otherwise.
UniProt P18054: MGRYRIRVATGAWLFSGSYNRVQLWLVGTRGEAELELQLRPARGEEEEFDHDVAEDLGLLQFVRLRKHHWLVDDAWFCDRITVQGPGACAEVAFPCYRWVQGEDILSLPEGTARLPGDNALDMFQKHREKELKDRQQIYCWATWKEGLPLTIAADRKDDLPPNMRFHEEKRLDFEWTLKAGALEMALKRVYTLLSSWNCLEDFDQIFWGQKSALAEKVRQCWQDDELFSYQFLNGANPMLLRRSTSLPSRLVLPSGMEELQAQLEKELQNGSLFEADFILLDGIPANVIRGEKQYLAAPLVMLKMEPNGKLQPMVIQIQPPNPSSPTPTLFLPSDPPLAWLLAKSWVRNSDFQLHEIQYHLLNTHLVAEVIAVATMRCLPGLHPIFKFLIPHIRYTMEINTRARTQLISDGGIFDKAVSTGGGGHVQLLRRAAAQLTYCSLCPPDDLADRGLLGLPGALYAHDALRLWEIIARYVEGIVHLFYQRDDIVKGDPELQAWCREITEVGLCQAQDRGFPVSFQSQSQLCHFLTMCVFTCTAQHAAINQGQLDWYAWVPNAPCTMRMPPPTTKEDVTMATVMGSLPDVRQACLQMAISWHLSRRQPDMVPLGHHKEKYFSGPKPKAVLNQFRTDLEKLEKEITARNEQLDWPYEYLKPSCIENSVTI

Molecular target: human platelet 12-lipoxygenase (12-LOX) (Homo sapiens (Human), UniProt P18054)
Conditions: read-out: 12-LOX IC50; Table 4

SMILES	IC50
COc1cccc(CNc2ccc(S(=O)(=O)Nc3nccs3)cc2)c1O [Compound 1, 4-(2-hydroxy-3-methoxybenzylamino)-N-(thiazol-2-yl)benzenesulfonamide]	5.1 µM
COc1cccc(CNc2ccc(S(=O)(=O)Nc3nc4ccccc4o3)cc2)c1O [Compound 36, N-(benzo[d]oxazol-2-yl)-4-((2-hydroxy-3-methoxybenzyl)amino)benzenesulfonamide]	0.79 µM
